Compound activity as filed in PubChem.
A selection: hits, their analogues and other compounds. The true share with any hit is near 13%.
miR-21 reporter: miR-21 reporter, rising signal. HeLa miR-21 FLuc reporter, luciferase, 48 h. Potency, µM (titrated, usually from 38.3 µM), without a hit: at the top dose reporter change, positive = more light. 340,000 tested, under 10 active. AID 2288; active = well fitted rising curve with a large enough effect; inconclusive = small, poorly fitted or top-dose-only effect; inactive = no such curve, though single readings can be large or run the other way;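 also: % of control where 0% means no effect; miR-21 action dims this reporter so a rising signal means less miR-21 action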
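HeLa cells stably expressing CMV-driven firefly luciferase with a downstream miR-21 binding sequence, endogenously expressing miR-21, were treated with titrations (up to about 40uM final) for 48 hours at 37 degree Celsius. Luciferase luminescence was read after lysis.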
ALDH1A1 block: ALDH1A1 (human) enzyme inhibition; P00352; Purified ALDH1A1, NADH fluorescence, propionaldehyde substrate; Potency, µM (highest dose often 75.3 µM), for the others: top-dose activity, negative = inhibition, most hits filed as inhibitors; 220,000 tested, 7.3% active; active = well fitted inhibition curve with a large enough effect, not every such curve was filed as active; inconclusive = small, poorly fitted or top-dose-only effect, or another doubt; inactive = no such curve, though single readings can be large or run the other way;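 note: potency is the fitted concentration of half-maximal effect; plate controls were no enzyme wells and a reference inhibitor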
JMJD2E inh: JMJD2E (human) inhibition | B2RXH2 | JMJD2E catalytic domain, FDH-coupled NADH fluorescence (FDH is formaldehyde dehydrogenase) | Potency, µM (highest dose often 57.1 µM), for inactives: top-dose activity change, negative = inhibition, usual class: inhibitors | 230,000 tested, 1.6% active | AID 2147; active = well fitted inhibition curve with a large enough effect, not every such curve was filed as active; inconclusive = small, poorly fitted or top-dose-only effect, or another doubt; inactive = no such curve, though single readings can be large or run the other way;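 note: potency is the fitted concentration of half-maximal effect; 0% = wells with enzyme and -100% = buffer wells without enzyme; nearly all actives have a fitted effect of over 50% in size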
G9a inh: blocks human histone lysine methyltransferase G9a | G9a H3K9 monomethylation, AlphaScreen, 2 h | Q96KQ7 | 350,000 tested, 8.8% active | Potency, µM (doses to about 102 µM), inactives show top-dose activity, negative = inhibition, usual class: inhibitors; note: potency is the fitted concentration of half-maximal effect; % is set by controls: 0 for no effect and ±100 for the full control effect; nearly all actives have a fitted effect of over 75% in size
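AlphaScreen read-out: biotin-H3K9 peptide (500 nM) methylation by 20 nM enzyme with 20 uM SAM, 2 h at room temperature after 15 min compound preincubation; anti-monomethyl H3K9 antibody plus donor/acceptor beads, 10 min dark.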
LMNA splice mod: modulators of lamin A splicing; Potency, µM (doses to about 46.1 µM), inactives show at the top dose ratio change, negative = inhibition, usual class: inhibitors; 200,000 tested, 0.01% active; AID 1487; HeLa LMNA splicing GFP/RFP minigene ratio, 48 h; active = well fitted inhibition curve with a large enough effect in the signal ratio, with a control signal flat, not every such curve was filed as active; inconclusive = small, poorly fitted or top-dose-only effect, or effect the other way, or a change in a side signal; the % refers to the signal ratio; note: potency is the fitted concentration of half-maximal effect; % is set by controls: 0 for no effect and ±100 for the full control effect
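S3 HeLa cells stably expressing lamin A-EGFP splicing minigene plus DsRed2, 600 cells/well, 48 h compound exposure at 37C. Laser-scanning cytometry; analysed as GFP (500-530 nm)/RFP (575-640 nm) total intensity ratio; 0.5% DMSO vehicle.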
Sfp PPTase inh: blocks B. subtilis Sfp PPTase activity. AID 1490. Q9F4F7. Biochemical Sfp PPTase activity, qHTS. hit rate 3.5% among 310,000. Potency, µM, for the others: max response, negative = inhibition, usual class: inhibitors; active = well fitted inhibition curve with a large enough effect; inconclusive = small, poorly fitted or top-dose-only effect, or another doubt; inactive = no such curve, though single readings can be large or run the other way;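 also: the enzyme is Sfp with the accession as filed and its product quenches rhodamine fluorescence; potency is read from the fitted curve at half-maximal effect; 0% = enzyme reaction without inhibitor and -100% = no enzyme wells; top concentration of the series not given in the record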
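Buffer: 50 mM Hepes-Na pH 7.6, 10 mM MgCl2, 0.01% Nonidet P-40, 0.01% BSA. Enzyme 15 nM, pre-exposed to compound 15 min; substrates then added and fluorescence change tracked over 30 min.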
* = called active by the depositor; ? = inconclusive; / = not tested or not shown; ! = not confirmed by another sample; [ ] = another dose, or the depositor's remark. Unless noted, calls come from the whole dose curve; as a rule, active = well fitted curve in the direction sought with a large enough effect; inconclusive = small, poorly fitted or top-dose-only effect, or another doubt; inactive = no such curve, though single readings can be large; an effect the other way counts as inactive or inconclusive.

1) COc1ccc2[nH]cc(CCNC(=O)c3cnn(-c4ccccc4Cl)c3C3CCN(C(=O)OC(C)(C)C)CC3)c2c1
2) c1ccc(-c2nc(Sc3ncnc4c3cnn4-c3ccccc3)n[nH]2)cc1
3) Cc1ccc(CSc2ncnc3c2cnn3-c2ccccc2)cc1
4) CCCN(CC(=O)Nc1ccccc1OC)C(=O)CC1CCCC1
5) Cc1cc(C)c(OCC(=O)N2CC=C(c3ccccc3)CC2)c(C)c1
6) CSc1ccc(S(=O)(=O)NCc2ccc(Cl)cc2Cl)cc1
compound no.	1	2	3	4	5	6
miR-21 reporter	23%	-6%	-7%	/	-4%	-6%
ALDH1A1 block	/	-2%	-13%	/	/	25µM*
JMJD2E inh	/	-7%	0%	/	/	-1%
G9a inh	?	32µM*	133%	17%[12.7 µM]	/	98%
LMNA splice mod	-20%[46 µM]	-18%	-6%	/	/	1%
Sfp PPTase inh	/	20%	-1%	/	-2%	1%

7) O=C(CCC1CCN(C(=O)c2ccco2)CC1)NCc1ccc(F)cc1
8) N#C/C(=N\Nc1cc(Cl)cc(Cl)c1)c1nnc2n1CCCCC2
9) N#C/C(=C1\C(=O)Nc2c(Cl)cc(Cl)cc21)c1nnc2n1CCCCC2
10) N#C/C(=C(/O)CCl)c1nnc2n1CCCCC2
11) O=C(CSc1n[nH]c(-c2ccco2)n1)N1c2ccccc2Sc2ccccc21
12) Cc1ccc(SCC(=O)N2c3ccccc3Sc3ccccc32)cc1
compound no.	7	8	9	10	11	12
miR-21 reporter	4%	2%	1%	7%	-6%	7%
ALDH1A1 block	/	8.9µM*	3.5µM*	?	7.9µM*	3.5µM*
JMJD2E inh	/	11%	?	-4%	-3%	3%
G9a inh	3%	-15%[59 µM]	?	-40%	50µM*	26%[12.7 µM]
LMNA splice mod	/	?	?	43%[46 µM]	-11%	6%
Sfp PPTase inh	7%	?	?	-36%	?	0%

Ordered by value in ALDH1A1 block (low to high): 3 from the list above.
9) N#C/C(=C1\C(=O)Nc2c(Cl)cc(Cl)cc21)c1nnc2n1CCCCC2
11) O=C(CSc1n[nH]c(-c2ccco2)n1)N1c2ccccc2Sc2ccccc21
8) N#C/C(=N\Nc1cc(Cl)cc(Cl)c1)c1nnc2n1CCCCC2
compound no.	9	11	8
miR-21 reporter	1%	-6%	2%
ALDH1A1 block	3.5µM*	7.9µM*	8.9µM*
JMJD2E inh	?	-3%	11%
G9a inh	?	50µM*	-15%[59 µM]
LMNA splice mod	?	-11%	?
Sfp PPTase inh	?	?	?

(continued)
13) O=C(CSc1nncs1)N1c2ccccc2Sc2ccccc21
14) O=C(CSc1n[nH]c(-c2ccco2)n1)Nc1sc2c(c1C(=O)Nc1ccccc1)CCCC2
15) CCOC(=O)CSc1n[nH]c(-c2ccco2)n1
16) O=C(CSc1nncs1)N1CCN(S(=O)(=O)c2ccccc2)CC1
17) Cc1cc(SCC(=O)Nc2nsc(-c3ccc(C(C)(C)C)cc3)n2)nc2ccccc12
18) CC(C)(C)NC(=O)CN1CCN(C(=O)CCl)CC1
compound no.	13	14	15	16	17	18
miR-21 reporter	-6%	6%	-6%	0%	-85%	20%
ALDH1A1 block	10µM*	-3%	1%	3%	/	0.32µM*
JMJD2E inh	1%	-19%	5%	13%	/	-11%
G9a inh	18%	?	1%	7%	-31%[59 µM]	?
LMNA splice mod	0%	5%	1%	/	/	/
Sfp PPTase inh	-2%	35µM*	5%	12%	/	?

19) CC(C)(C)NC(=O)NC(=O)CN1CCCCCCC1
20) CCOC(=O)N1CCN(C(=O)CCl)CC1
21) O=C(CN(c1ccccc1)S(=O)(=O)c1ccccc1)Nc1ccc(F)cc1
22) O=C(CCC1CCCCC1)Nc1c2c(nn1-c1ccc(F)cc1)CS(=O)(=O)C2
23) CCCC(=O)Nc1c2c(nn1-c1ccc(F)cc1)CS(=O)(=O)C2
24) O=C(Nc1c2c(nn1-c1ccc(F)cc1)CS(=O)(=O)C2)C12CC3CC(CC(C3)C1)C2
compound no.	19	20	21	22	23	24
miR-21 reporter	-11%	20%	4%	-2%	-5%	-8%
ALDH1A1 block	?	0.56µM*	/	10µM*	/	4µM*
JMJD2E inh	-7%	-22%	/	-2%	/	4%
G9a inh	?	?	17%	-37%	5%	-30%
LMNA splice mod	/	/	/	-15%	/	8%
Sfp PPTase inh	13%	14%	15%	9%	9%	10%

25) O=C(CSC1=NC(=O)C(Cc2ccccc2)C(=O)N1)Nc1ncccn1 (stereo unspecified)
26) O=C(CSC1=NC(=O)C(c2ccccc2)C(=O)N1)Nc1ccccc1Cl (stereo unspecified)
27) COc1ccccc1NC(=O)CSC1=NC(=O)C(Cc2ccccc2)C(=O)N1 (stereo unspecified)
28) O=C(CSC1=NC(=O)C(Cc2ccccc2)C(=O)N1)Nc1ncc(Br)cc1Br (stereo unspecified)
29) CCC1C(=O)N=C(SCC(=O)Nc2ccccc2)NC1=O (stereo unspecified)
30) CCC1C(=O)N=C(SCC(=O)NC2CCCCC2)NC1=O (stereo unspecified)
compound no.	25	26	27	28	29	30
miR-21 reporter	-1%	9%	0%	-2%	-2%	6%
ALDH1A1 block	0%	20µM*	/	40µM*	-6%	25µM*
JMJD2E inh	-5%	1%	/	1%	2%	-9%
G9a inh	79µM*	-14%	-6%	-4%[59 µM]	-3%[59 µM]	13%
LMNA splice mod	7%	15%	/	/	12%	/
Sfp PPTase inh	-5%	21%	23%	?	12%	5%

31) CC(=O)NC1C(=O)N=C(SCC(=O)NC2CCCCC2)NC1=O (stereo unspecified)
32) Cc1cccc(-n2c(SC(C)C(=O)O)nc3sc4c(c3c2=O)CCCC4)c1 (stereo unspecified)
33) O=C(c1ccncc1)N1CCN(S(=O)(=O)c2ccc(F)cc2)CC1
34) COC(=O)c1cc(C(=O)OC)n(Cc2ccc(C)cc2)c1C
35) COC(=O)c1cc2sc(C)cc2n1Cc1ccccc1
36) COc1cccc(CNC(=O)c2cc3c(cc2Cl)N2CCCCCC2=NS3(=O)=O)c1
compound no.	31	32	33	34	35	36
miR-21 reporter	-17%	-21%	-5%	-3%	-2%	/
ALDH1A1 block	?	/	/	-4%	/	/
JMJD2E inh	4%	/	/	-6%	/	/
G9a inh	?	6%[2.33 µM]	?	50µM*	52%[59 µM]	11µM*
LMNA splice mod	23%	/	/	12%[46 µM]	/	/
Sfp PPTase inh	-8%	5%	20%	6%	/	/

37) O=C(NC1CCCCC1)c1cc2c(cc1Cl)N1CCCCCC1=NS2(=O)=O
38) COc1cccc(CNC(=O)c2ccc3c(c2)S(=O)(=O)N=C2CCCCCN23)c1
39) CCCCc1cc2c(cn1)=C(OC(=O)c1ccco1)C(C)(OC(=O)CC)C(=O)C=2 (stereo unspecified)
40) COC(=O)CCCC1=CC2=CC(=O)C(C)(OC(=O)c3ccco3)C(=O)C2=CO1 (stereo unspecified)
41) CC(=O)c1ccc(NC(=O)c2cnc(N3CCCC3)nc2C)cc1
42) Cc1ccc(/C(=N/Nc2nc3ccccc3s2)C2=C(O)c3ccccc3C2=O)cc1
compound no.	37	38	39	40	41	42
miR-21 reporter	/	-7%	/	/	14%	-3%
ALDH1A1 block	/	/	2µM*	-2%	/	-2%
JMJD2E inh	/	/	-19%[11.4 µM]	1%	/	-3%
G9a inh	50µM*	27%	/	/	29%[59 µM]	-12%
LMNA splice mod	/	/	-8%[9.22 µM]	/	3%[46 µM]	/
Sfp PPTase inh	/	5%	-17%	-2%	/	79µM*

43) COc1ccc(N)c2c1C(=O)c1ccccc1C2=O
44) COc1c2ccccc2c(OC)c2ccccc12
45) COc1cccc2c1-c1c(C(=O)O)cccc1C2=O
46) COc1cccc2c1C(=O)c1ccc3ccccc3c1C2=O
47) COC1=C(OC)C(=O)c2ccccc2C1=O
48) COc1ccc(OC)c2c1C(=O)C(Cl)=C(Cl)C2=O
49) COc1ccc(OC)c(NC(=O)c2c(N3CCCC3=O)c3cc(OC)ccc3n2C)c1
compound no.	43	44	45	46	47	48	49
miR-21 reporter	-41%	-1%	0%	-33%	/	27%	4%
ALDH1A1 block	?	?	/	?	14µM*	/	/
JMJD2E inh	6%	?	/	6%	11µM*	?	/
G9a inh	25µM*	?	?	40µM*	20µM*!	/	?
LMNA splice mod	-26%	/	/	-4%	?	/	/
Sfp PPTase inh	-6%	14%	12%	-6%	/	0.5µM*	/
